Test results reported in patent publication US20220031668A1, “METHODS OF INHIBITING PROCOLLAGEN-LYSINE, 2-OXOGLUTARATE 5-DIOXYGENASE 2” (University of Kentucky Research Foundation, priority 2020, published 2022).

Tested on: MDA-MB-231 cells
Assay: 3D culture assay of cancer cell invasion
Assay type: cell-based, human
Protocol: 3D culture assay is an established platform to study cancer cell invasion, and the ability of compounds to attenuate such cell invasion (Zhang 2015). […] The MDA-MB-231 cell line is an epithelial, human breast cancer cell line.
Briefly, to conduct the 3D culture assay, 12-well plates were coated with […], matrigel per well. After incubating the plates at 37° C. for 15 minutes, MDA-MB-231 cells were plated with about 300 cells per well. The plates were allowed to stand for 45 min in the 37° C. incubator to let the cells deposit into the matrigel. The cells were then covered with 10% matrigel, which contained test compounds. […]

C[C@@H](O)[C@H]1C(=O)N2C(C(=O)OCOC(=O)C(C)(C)C)=C(SC3CN(C4=NCCS4)C3)[C@H](C)[C@H]12 [Tebipenem pivoxil]
inhibitory activity on breast cancer progression (invasive growth) in 3D culture: inhibitory activity
